Assay results as given in ChEMBL document CHEMBL1136781, “Comparison of in vitro P-glycoprotein screening assays: recommendations for their use in drug discovery” (J Med Chem, 2003).

The chains behind the UniProt entries cited, without tags or fusion partners.
UniProt P21447, whole entry: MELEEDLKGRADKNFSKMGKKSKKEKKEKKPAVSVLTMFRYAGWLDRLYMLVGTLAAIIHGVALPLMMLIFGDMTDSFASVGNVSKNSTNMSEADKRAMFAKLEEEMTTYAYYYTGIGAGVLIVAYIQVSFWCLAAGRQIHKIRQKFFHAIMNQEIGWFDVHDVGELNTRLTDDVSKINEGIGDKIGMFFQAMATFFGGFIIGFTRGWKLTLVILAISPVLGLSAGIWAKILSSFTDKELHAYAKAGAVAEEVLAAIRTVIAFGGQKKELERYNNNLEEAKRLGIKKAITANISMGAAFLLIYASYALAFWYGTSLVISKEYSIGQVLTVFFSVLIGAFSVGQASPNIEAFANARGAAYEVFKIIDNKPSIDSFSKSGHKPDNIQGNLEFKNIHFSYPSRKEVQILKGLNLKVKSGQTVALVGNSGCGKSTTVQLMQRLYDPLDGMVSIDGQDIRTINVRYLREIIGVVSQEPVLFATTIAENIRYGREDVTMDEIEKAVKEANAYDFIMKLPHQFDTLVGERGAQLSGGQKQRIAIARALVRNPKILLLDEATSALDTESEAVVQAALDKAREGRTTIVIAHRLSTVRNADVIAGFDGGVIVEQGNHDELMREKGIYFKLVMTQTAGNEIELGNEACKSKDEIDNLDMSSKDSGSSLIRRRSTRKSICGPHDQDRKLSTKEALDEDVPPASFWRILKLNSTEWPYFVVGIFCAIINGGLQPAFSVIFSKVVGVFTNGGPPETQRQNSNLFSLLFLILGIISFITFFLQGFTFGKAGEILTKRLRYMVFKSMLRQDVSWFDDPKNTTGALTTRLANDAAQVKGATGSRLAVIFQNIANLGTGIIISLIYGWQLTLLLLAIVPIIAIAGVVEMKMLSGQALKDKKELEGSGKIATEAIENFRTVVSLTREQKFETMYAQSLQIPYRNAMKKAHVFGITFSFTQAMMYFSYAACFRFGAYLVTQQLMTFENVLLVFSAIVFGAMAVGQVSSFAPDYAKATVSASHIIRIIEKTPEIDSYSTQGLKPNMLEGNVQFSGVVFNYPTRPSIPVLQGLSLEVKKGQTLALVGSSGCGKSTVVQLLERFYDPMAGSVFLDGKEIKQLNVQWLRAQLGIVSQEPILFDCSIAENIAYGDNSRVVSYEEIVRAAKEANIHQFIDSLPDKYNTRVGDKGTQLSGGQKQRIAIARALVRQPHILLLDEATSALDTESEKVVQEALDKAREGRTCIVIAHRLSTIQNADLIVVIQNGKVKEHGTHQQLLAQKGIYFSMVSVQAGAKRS
UniProt P08183, whole entry: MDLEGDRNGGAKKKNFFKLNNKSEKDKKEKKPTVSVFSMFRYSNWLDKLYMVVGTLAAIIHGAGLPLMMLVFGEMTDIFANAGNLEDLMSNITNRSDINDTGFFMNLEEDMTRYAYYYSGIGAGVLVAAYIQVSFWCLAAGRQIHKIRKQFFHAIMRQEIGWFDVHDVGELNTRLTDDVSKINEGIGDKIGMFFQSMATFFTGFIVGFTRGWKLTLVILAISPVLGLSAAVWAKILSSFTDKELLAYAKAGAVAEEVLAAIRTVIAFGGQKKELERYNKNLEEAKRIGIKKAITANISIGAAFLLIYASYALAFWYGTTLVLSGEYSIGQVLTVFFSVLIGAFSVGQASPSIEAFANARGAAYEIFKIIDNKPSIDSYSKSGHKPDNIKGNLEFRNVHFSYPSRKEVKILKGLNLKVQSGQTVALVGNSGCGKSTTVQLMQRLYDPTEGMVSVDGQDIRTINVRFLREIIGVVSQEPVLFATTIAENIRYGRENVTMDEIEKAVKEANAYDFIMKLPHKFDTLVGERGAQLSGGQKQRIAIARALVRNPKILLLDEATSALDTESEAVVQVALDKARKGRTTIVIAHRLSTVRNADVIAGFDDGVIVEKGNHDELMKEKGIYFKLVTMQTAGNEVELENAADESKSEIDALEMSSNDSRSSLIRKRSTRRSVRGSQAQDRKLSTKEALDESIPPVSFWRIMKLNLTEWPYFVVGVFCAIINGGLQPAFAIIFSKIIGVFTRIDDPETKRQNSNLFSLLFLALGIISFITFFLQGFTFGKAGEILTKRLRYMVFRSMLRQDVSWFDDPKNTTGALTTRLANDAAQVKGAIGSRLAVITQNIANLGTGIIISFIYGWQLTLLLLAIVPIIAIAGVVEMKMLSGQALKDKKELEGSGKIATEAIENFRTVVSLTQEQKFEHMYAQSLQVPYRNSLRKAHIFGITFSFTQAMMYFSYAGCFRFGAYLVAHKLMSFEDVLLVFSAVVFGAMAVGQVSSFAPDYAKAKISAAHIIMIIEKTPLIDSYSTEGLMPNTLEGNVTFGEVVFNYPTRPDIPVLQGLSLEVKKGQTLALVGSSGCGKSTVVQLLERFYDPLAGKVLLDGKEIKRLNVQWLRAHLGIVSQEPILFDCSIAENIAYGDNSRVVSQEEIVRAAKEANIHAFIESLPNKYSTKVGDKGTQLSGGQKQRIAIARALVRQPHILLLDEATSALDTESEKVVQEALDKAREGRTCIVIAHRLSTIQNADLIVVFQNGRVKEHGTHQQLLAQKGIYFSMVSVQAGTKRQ
UniProt P06795, whole entry: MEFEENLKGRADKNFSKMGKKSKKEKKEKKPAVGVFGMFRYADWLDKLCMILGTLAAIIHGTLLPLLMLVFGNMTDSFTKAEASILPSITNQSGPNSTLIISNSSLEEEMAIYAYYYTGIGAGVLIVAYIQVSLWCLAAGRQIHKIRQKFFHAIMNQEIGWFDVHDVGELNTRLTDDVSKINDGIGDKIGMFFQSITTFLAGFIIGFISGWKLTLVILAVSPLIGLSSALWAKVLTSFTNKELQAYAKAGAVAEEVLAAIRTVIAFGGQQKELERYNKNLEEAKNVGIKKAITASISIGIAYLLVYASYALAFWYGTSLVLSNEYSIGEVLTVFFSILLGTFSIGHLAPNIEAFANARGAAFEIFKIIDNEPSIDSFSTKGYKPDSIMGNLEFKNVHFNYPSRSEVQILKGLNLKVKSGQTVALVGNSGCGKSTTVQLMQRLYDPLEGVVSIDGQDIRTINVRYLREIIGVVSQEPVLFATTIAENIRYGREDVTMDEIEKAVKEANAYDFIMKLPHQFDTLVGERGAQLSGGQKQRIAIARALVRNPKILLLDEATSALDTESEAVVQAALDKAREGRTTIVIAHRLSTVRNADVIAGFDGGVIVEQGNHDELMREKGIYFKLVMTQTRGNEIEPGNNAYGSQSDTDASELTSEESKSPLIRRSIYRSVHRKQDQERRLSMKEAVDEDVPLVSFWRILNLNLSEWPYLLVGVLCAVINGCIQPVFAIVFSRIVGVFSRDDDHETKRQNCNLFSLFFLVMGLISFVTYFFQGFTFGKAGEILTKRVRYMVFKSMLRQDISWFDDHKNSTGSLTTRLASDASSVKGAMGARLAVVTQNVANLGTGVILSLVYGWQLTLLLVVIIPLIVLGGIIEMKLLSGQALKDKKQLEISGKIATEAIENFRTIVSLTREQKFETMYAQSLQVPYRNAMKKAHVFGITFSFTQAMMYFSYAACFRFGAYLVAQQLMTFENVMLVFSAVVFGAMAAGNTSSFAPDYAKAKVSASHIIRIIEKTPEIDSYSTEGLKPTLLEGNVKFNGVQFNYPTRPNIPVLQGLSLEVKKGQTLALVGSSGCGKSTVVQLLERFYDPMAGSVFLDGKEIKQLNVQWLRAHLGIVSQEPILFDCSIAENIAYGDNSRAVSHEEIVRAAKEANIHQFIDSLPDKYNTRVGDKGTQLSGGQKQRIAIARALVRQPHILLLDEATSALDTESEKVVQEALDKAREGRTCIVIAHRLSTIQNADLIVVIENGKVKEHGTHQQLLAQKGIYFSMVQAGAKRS

Assays:
[1] = biological target: T1, ATP-dependent translocase ABCB1 (Mus musculus, UniProt P21447); experiment: Inhibition of P-glycoprotein, mouse L-mdr1a expressed in LLC-PK1 epithelial cells using calcein-AM polarisation assay; format: functional, cell-based
[2] = biological target: T1, ATP-dependent translocase ABCB1; experiment: TP_TRANSPORTER: inhibition of Calcein-AM efflux in Mdr1a-expressing LLC-PK1 cells; format: functional, cell-based
[3] = biological target: T2, ATP-dependent translocase ABCB1 (Homo sapiens, UniProt P08183); experiment: TP_TRANSPORTER: inhibition of Calcein-AM efflux in MDR1-expressing LLC-PK1 cells; format: functional, cell-based
[4] = biological target: T3, ATP-dependent translocase ABCB1 (Mus musculus, UniProt P06795); experiment: Inhibition of P-glycoprotein, mouse L-mdr1b expressed in LLC-PK1 epithelial cells using calcein-AM polarisation assay; format: functional, cell-based
[5] = biological target: T3, ATP-dependent translocase ABCB1; experiment: TP_TRANSPORTER: inhibition of Calcein-AM efflux in Mdr1b-expressing LLC-PK1 cells; format: functional, cell-based
[6] = biological target: T2, ATP-dependent translocase ABCB1; experiment: Inhibition of P-glycoprotein using ATPase in MDR1 membranes; format: functional, cell membranes; note: test concentration or dose not given here

| Structure (SMILES) | pIC50 [1] | pIC50 [2] | pIC50 [4] | pIC50 [5] | further results |
| --- | --- | --- | --- | --- | --- |
| CN/C(=N/CCSCc1nc[nH]c1C)NC#N [CIMETIDINE] | < 4.30 | < 4.30 | – | – | pIC50 [3]: < 4.30 |
| CC[C@H]1OC(=O)[C@H](C)[C@@H](O[C@H]2C[C@@](C)(OC)[C@@H](O)[C@H](C)O2)[C@H](C)[C@@H](O[C@@H]2O[C@H](C)C[C@H](N(C)C)[C@H]2O)[C@](C)(O)C[C@@H](C)C(=O)[C@H](C)[C@@H](O)[C@]1(C)O [ERYTHROMYCIN] | – | – | < 4.46 | < 4.46 | – |
| CCC(C)n1ncn(-c2ccc(N3CCN(c4ccc(OCC5COC(Cn6cncn6)(c6ccc(Cl)cc6Cl)O5)cc4)CC3)cc2)c1=O (stereo not given) [ITRACONAZOLE] | – | – | – | 6.15 | – |
| CCC(C)n1ncn(-c2ccc(N3CCN(c4ccc(OC[C@H]5CO[C@](Cn6cncn6)(c6ccc(Cl)cc6Cl)O5)cc4)CC3)cc2)c1=O (stereo not given in full) [ITRACONAZOLE] | – | – | 6.15 | – | – |
| CN1CC[C@]23c4c5ccc(O)c4O[C@H]2[C@@H](O)C=C[C@H]3[C@H]1C5 [MORPHINE] | – | – | – | – | Activity [6]: 3.7 nmol/min/mg |
| O=c1[nH]c2ccccc2n1C1CCN(CCCC(c2ccc(F)cc2)c2ccc(F)cc2)CC1 [PIMOZIDE] | 5.31 | 5.31 | – | – | – |

pIC50: −log10 of the molar value.
